Values quoted from earlier work in patent US20090324496A1, “Radioactive material for inhibiting cancer and preparation method thereof” (priority 2008, published 2009).

System: advanced breast cancer with over-expression of HER2
[1] = secondary clinical trial, 222 patients with no response to chemotherapy

Question: Which results are given for “Herceptin: monoclonal antibody against Her-2/neu (Erb B-2) antigen in cancer cells”?
Answer: response rate (46 patients with advanced breast cancer and over-expression of HER2): 11.6%; tumor response rate (as a single agent, patients with Her-2/neu over-expressing): about 30%; control period [1]: 9.1 months; response rate [1]: 16%

Where two headings read alike, the source gives them in different places.
